These are literature values, as cited in PMC3182250.

For the data set, the target named is hEag-1 CaM-binding site (Homo sapiens) (UniProt O95259).

pKd: −log10 of the molar value.

Regarding Calmodulin (from UniProt P0DP23), the pKd is less than 7.00.

For orientation: pKd means the negative decadic logarithm of the Kd, by convention in mol/L.
